Earlier results on one molecule are cited in article PMC6520732, “Exploring the Antiangiogenic Potential of Solomonamide A Bioactive Precursors: In Vitro and In Vivo Evidences of the Inhibitory Activity of Solo F-OH During Angiogenesis” (Marine Drugs, 2019).

For this data set, the system named is VEGFR2 TK activity. To be noted: read-out: IC50 of VEGFR2 TK activity; in vitro biochemical assays; ref [31],[32]; cited from earlier work.

For orientation: IC50 means the concentration that gives 50% inhibition. For the molecule `CCN(CC)CCNC(=O)c1c(C)[nH]c(/C=C2\C(=O)Nc3ccc(F)cc32)c1C` [Sunitinib], the IC50 is 80 nM.
